{
  "sequences": {"note": "Protein sequences, listed by entry. Tags and fused reporters are not part of them. Residues count along the entry.", "UniProt P28335, 33-458": "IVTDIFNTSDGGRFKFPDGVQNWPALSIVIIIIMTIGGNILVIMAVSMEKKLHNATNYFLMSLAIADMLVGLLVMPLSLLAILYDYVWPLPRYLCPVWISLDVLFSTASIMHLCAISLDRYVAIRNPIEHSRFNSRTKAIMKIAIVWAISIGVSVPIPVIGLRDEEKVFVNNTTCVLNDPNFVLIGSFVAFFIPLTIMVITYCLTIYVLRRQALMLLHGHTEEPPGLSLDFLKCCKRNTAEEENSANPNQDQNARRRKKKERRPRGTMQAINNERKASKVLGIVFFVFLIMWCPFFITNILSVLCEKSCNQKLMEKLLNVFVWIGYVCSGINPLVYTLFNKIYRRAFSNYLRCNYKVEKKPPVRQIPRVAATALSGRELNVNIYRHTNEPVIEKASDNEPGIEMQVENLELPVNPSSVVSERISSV"},
  "source": "patent US7368477B2",
  "about": "“Benzofuranyl alkanamine derivatives and uses thereof” (Wyeth, priority 2005, dated 2008)",
  "key": {"[1]": {"molecular_target": "T1, human 5-hydroxytryptamine-2C (h5-HT2C) receptor (Homo sapiens, UniProt P28335)", "T1 construct": "expressed in transfected cells; host or cells: CHO (Chinese Hamster Ovary) cells; membrane preparation", "assay": "[125I]DOI binding to membranes of CHO cells expressing the human 5-HT2C receptor", "settings": "reference compounds, [125I]DOI displacement, read-out: Ki (95% confidence interval)"}, "human 5-HT2C receptor": {"molecular_target": "human 5-HT2C receptor (Homo sapiens, UniProt P28335)", "assay": "Calcium mobilization (FLIPR) in CHO cells stably expressing the human 5-HT2C receptor", "type": "cell-based", "settings": "reference compounds, h5-HT2C CHO cells"}},
  "note": "pEC50, pKi: −log10 of the molar value.",
  "data": [
    {"smiles": "Clc1cccc(N2CCNCC2)c1", "note": "[mCPP, meta-chlorophenylpiperazine, reference compound]", "values": [
      {"measurement": "pKi", "setting": "[1]", "value": 8.19},
      {"measurement": "pEC50", "setting": "human 5-HT2C receptor", "value": 8.27}
    ]}
  ]
}
